The text below walks through data of paper PMC12075652, “ATP functions as a pathogen-associated molecular pattern to activate the E3 ubiquitin ligase RNF213” (Nature Communications, 2025).

Chains of the proteins cited; added tags and fusions are not shown.
UniProt P68036, whole entry: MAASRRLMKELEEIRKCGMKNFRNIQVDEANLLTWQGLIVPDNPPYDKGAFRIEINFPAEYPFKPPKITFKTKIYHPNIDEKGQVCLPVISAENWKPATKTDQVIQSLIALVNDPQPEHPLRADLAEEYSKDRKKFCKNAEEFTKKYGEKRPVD

What is called Kd is the equilibrium constant for the complex coming apart. Read a high Kd as a looser complex.

For the test, the target named is T1, UBE2L3 (human, UniProt P68036 1-154).
T1 construct: UBE2L3, human E2 ubiquitin-conjugating enzyme; source: E. coli, purified (size-exclusion chromatography)
Kind of test: ITC; UBE2L3 (70 µM) in the cell, CTD domain (715 µM) in the syringe, 13 injections; 20 mM Na2HPO4, 200 mM NaCl, 0.5 mM TCEP. As to conditions: both partners purified. (In general: In ITC the heat of successive injections is recorded.)

B1: RNF213 CTD domain (human residues 4986-5207), untagged (domain or fragment, UniProt Q63HN8 4986-5207, looked up)
chain: NYEHLFMDIKNKMAQDSLPSSVISAISGQLQSYSDACEVLSVVEVTLGFLSTAGGDPNMQLNVYTQDILQMGDQTIHVLKALNRCQLKHTIALWQFLSAHKSEQLLRLHKEPFGEISSRYKADLSPENAKLLSTFLNQTGLDAFLLELHEMIILKLKNPQTQTEERFRPQWSLRDTLVSYMQTKESEILPEMASQFPEEILLASCVSVWKTAAVLKWNREMR
notes: also called isolated purified CTD domain; source: E. coli BL21(DE3), purified (glutathione sepharose, PreScission cleavage, SEC)
Molecule B1 came in with a Kd above 500 µM.
